Like-named read-outs stand apart in the source and are kept apart here.
How the values were obtained:
human μ opiate receptor = human μ opiate receptor (Homo sapiens, UniProt P35372); assay: μ opiate receptor binding assay, membrane preparation of CHO-K1 cells, [3H]-naloxone (or DAMGO) displacement; conditions: for μ % inhibition [1 μM] / μ % inhibition [1 μM] (DA): test substance 1 μmole/l; for μ % inhibition [1 μM]: radioligand [3H]-naloxone; for μ % inhibition [1 μM] (DA): (DA): DAMGO instead of naloxone
ORL1 receptor = ORL1 receptor (Homo sapiens, UniProt P41146); assay: ORL1 receptor binding assay with 3H-nociceptin/orphanin FQ, membranes of recombinant CHO-ORL1 cells; conditions: 3H-nociceptin/orphanin FQ 0.5 nM; for Ki: read-out: ORL1 Ki, CHO-ORL1 membranes; for ORL1 % inhibition [1 μM]: test substance 1 μM
[1] = Analgesia investigation in the tail flick test in mice; conditions: dose 10 mg/kg
[2] = read-out: μ Ki, radioligand [3H]-naloxone 1 nmole/l, Cheng-Prusoff
[3] = read-out: μ Ki (DA), (DA): measured using DAMGO instead of naloxone

The chains behind the UniProt entries cited, without tags or fusion partners. Where a name states a change or a piece, a line headed by the entry shows the natural chain unless it says otherwise.
UniProt P35372, whole entry, looked up: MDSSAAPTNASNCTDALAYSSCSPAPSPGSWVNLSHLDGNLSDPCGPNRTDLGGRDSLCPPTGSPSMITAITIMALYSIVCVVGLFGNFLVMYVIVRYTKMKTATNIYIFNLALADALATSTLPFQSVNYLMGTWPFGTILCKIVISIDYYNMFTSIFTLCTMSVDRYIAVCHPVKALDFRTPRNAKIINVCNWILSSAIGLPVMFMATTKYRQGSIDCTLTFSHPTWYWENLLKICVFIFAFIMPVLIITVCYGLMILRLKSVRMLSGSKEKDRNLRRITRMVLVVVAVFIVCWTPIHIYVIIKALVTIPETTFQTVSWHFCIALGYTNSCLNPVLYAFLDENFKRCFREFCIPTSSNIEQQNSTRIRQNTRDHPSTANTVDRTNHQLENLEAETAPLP
UniProt P41146: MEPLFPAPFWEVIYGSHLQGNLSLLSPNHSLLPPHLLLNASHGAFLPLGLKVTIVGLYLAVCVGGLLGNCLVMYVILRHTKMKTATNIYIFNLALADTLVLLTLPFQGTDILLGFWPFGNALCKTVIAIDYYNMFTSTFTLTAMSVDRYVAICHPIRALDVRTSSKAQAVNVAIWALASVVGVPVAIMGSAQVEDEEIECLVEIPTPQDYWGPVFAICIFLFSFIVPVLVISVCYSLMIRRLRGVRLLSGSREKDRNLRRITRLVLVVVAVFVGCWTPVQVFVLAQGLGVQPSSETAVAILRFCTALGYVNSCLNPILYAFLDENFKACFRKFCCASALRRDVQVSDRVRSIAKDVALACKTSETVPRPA

Compound | Ki (ORL1 receptor) [nM] | Ki (human μ opiate receptor; [2]) [nM] | ORL1 % inhibition [1 μM] (ORL1 receptor) [%] | further results
COc1ccc2[nH]cc(C3=CCN(C4CCC(c5ccccc5)(N(C)C)CC4)CC3)c2c1 (stereo not shown) | 150 |  |  | μ % inhibition [1 μM] (human μ opiate receptor): 91%
CN(C)C1(c2ccccc2)CCC(=CC(=O)N2CCCC(c3c[nH]c4ccccc34)C2)CC1 (stereo not shown) | 43 | 7.9 |  | Tail Flick (mice, i.v.) % inhibition [1]: 100%
CN(C)C1(c2ccccc2)CCC(=CC(=O)N2CCC(c3c[nH]c4ccccc34)CC2)CC1 (stereo not shown) | 95 | 41 |  | 
CN(C)C1(c2ccccc2)CCC(NC(=O)N2CCCC(c3c[nH]c4ccc(Cl)cc34)C2)CC1 (single isomer, unassigned) | 33 | 8.1 |  | 
CN(C)C1(c2ccccc2)CCC(NC(=O)N2CCC(c3c[nH]c4ccc(Cl)cc34)CC2)CC1 (stereo not shown) |  | 13 | 59 | 
CN(C)C1(c2ccccc2)CCC(N2CC=C(c3c[nH]c4ccccc34)CC2)CC1 (stereo not shown) | 170 |  |  | μ % inhibition [1 μM] (human μ opiate receptor): 90%
CN(C)C1(c2ccccc2)CCC(=CC(=O)N2CCC(c3c[nH]c4ccc(Cl)cc34)CC2)CC1 (stereo not shown) | 110 | 21 |  | 
CN(C)C1(c2ccccc2)CCC(CC(=O)N2CCC(c3c[nH]c4ccccc34)C2)CC1 (stereo not shown) | 21 | 2.2 |  | 
COc1ccc2[nH]cc(C3=CCN(C(=O)NCC4CCC(c5ccccc5)(N(C)C)CC4)CC3)c2c1 (stereo not shown) |  |  | 63 | μ % inhibition [1 μM] (DA) (human μ opiate receptor): 52%
CN(C)C1(c2ccccc2)CCC(NC(=O)N2CCCC(c3c[nH]c4ccc(F)cc34)C2)CC1 (stereo not shown) |  |  | 34 | μ % inhibition [1 μM] (human μ opiate receptor): 57%
4-(5-chloro-1H-indol-3-yl)-3,6-dihydro-2H-pyridine-1-carboxylic acid-(4-dimethylamino-4-phenylcyclohexylmethyl)-amide [Example 59] | 82 |  |  | Ki (human μ opiate receptor; [3]): 38 nM
CN(C)C1(c2ccccc2)CCC(CC(=O)N2CCCC(c3c[nH]c4ccccc34)C2)CC1 (stereo not shown) | 56 | 3.1 |  | 
COc1ccc2[nH]cc(C3=CCN(C(=O)C=C4CCC(c5ccccc5)(N(C)C)CC4)CC3)c2c1 (stereo not shown) | 67 |  |  | Ki (human μ opiate receptor; [3]): 24 nM
CN(C)C1(c2ccccc2)CCC(=CC(=O)N2CC=C(c3c[nH]c4ccccc34)CC2)CC1 (stereo not shown) | 39 |  |  | Ki (human μ opiate receptor; [3]): 31 nM
CN(C)C1(c2ccc(F)cc2)CCC(N2CCC(c3c[nH]c4ccccc34)C2)CC1 (stereo not shown) |  |  | 10 | μ % inhibition [1 μM] (human μ opiate receptor): 66%
CN(C)C1(c2ccc(F)cc2)CCC(N2CCC(c3c[nH]c4ccccc34)C2)CC1 (single isomer, unassigned) | 87 | 22 |  | 
CN(C)C1(c2ccc(F)cc2)CCC(=CC(=O)N2CCC(c3c[nH]c4ccccc34)C2)CC1 (stereo not shown) |  | 22 | 45 | 
4-(5-chloro-1H-indol-3-yl)-3,6-dihydro-2H-pyridine-1-carboxylic acid-(4-dimethylamino-4-phenylcyclohexylmethyl)-amide [Example 58] | 120 |  |  | Ki (human μ opiate receptor; [3]): 31 nM
CN(C)C1(c2ccccc2)CCC(NC(=O)N2CCC(C3C=Nc4ccc(F)cc43)CC2)CC1 (stereo not shown) |  |  | 66 | 
CN(C)C1(c2ccccc2)CCC(N2CCCCC2)CC1 (stereo not shown) |  |  |  | μ % inhibition [1 μM] (DA) (human μ opiate receptor): 23%
CN(C)C1(c2ccccc2)CCC(NC(=O)N2CCCC(c3c[nH]c4ccc(Cl)cc34)C2)CC1 (stereo not shown) |  |  | 26 | μ % inhibition [1 μM] (human μ opiate receptor): 56%
4-(5-methoxy-1H-indol-3-yl)piperidine-1-carboxylic acid-(4-dimethylamino-4-phenylcyclohexyl)-amide |  | 31 | 39 | 
COc1ccc2[nH]cc(C3=CCN(C(=O)NCC4CCC(c5ccccc5)(N(C)C)CC4)CC3)c2c1 (single isomer, unassigned) | 100 |  |  | Ki (human μ opiate receptor; [3]): 30 nM
CN(C)C1(c2ccccc2)CCC(N2CC=C(c3c[nH]c4ccc(Cl)cc34)CC2)CC1 (stereo not shown) | 95 |  |  | μ % inhibition [1 μM] (human μ opiate receptor): 85%
4-(5-fluoro-1H-indol-3-yl)piperidine-1-carboxylic acid-(4-dimethylamino-4-phenylcyclohexyl)-amide |  | 8.3 | 62 | 

From patent publication US7759385B2, “4-substituted 1-aminocyclohexane compounds for utilization as ORL1-receptor and mu-opiate receptor ligands” (dated 2010)
